The record followed here is patent publication US6908919B2, “Substituted polycyclic aryl and heteroaryl pyrazinones useful for selective inhibition of the coagulation cascade” (Pharmacia Corporation, priority 1999, dated 2005).

Protein sequences, listed by entry. Tags and fused reporters are not part of them. Residues count along the entry.
UniProt P00761, 9-231: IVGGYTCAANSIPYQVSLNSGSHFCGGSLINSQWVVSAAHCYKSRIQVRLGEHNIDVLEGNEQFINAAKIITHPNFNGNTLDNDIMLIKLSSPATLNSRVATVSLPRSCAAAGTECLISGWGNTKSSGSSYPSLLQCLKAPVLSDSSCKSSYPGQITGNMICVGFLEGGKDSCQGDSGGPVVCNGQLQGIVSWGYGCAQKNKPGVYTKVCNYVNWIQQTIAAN

The first assay concerns the target Trypsin (type IX from porcine pancreas) (Sus scrofa, UniProt P00761). In words: Trypsin Assay.
Settings: not given
As to `CC(C)Nc1nc(Cl)c(-c2cc(N)ccc2SCC(=O)O)n(CC(=O)NCc2ccc(C(=N)N)cc2)c1=O` [Example 110], half-maximal inhibition (IC50) required 370 nM.

`CSc1ccc(N)cc1-c1c(Cl)nc(NC(C)C)c(=O)n1CC(=O)NCc1ccc(C(=N)N)cc1` [Example 111] gave an IC50 of 280 nM.

On to `COC(=O)c1cccc(Sc2ccc(N)cc2-c2c(Cl)nc(NC(C)C)c(=O)n2CC(=O)NCc2ccc(C(=N)N)cc2)c1` [Example 112], for which the IC50 was 32 nM.

The compound `N=C(N)c1ccc(CNC(=O)Cn2c(-c3ccc(C(=N)N)cc3)c(Cl)nc(NC3CCC3)c2=O)cc1` [Example 113] yielded an IC50 of 25 nM.

As to `N=C(N)c1ccc(CNC(=O)Cn2c(-c3cccc(C(=N)N)c3)c(Cl)nc(NC3CCC3)c2=O)cc1` [Example 114], the IC50 stood at 24 nM.

As for `N=C(N)c1ccc(CNC(=O)Cn2c(-c3ccc(N)cc3)c(Cl)nc(NC3CCC3)c2=O)cc1` [Example 115], half-maximal inhibition (IC50) required 40 nM.

`N=C(N)c1ccc(CNC(=O)Cn2c(-c3ccccc3N)cnc(NC3CCC3)c2=O)cc1` [Example 116] showed an IC50 of 190 nM.

In turn, `COC(=O)c1cc(N)cc(-c2cnc(NC3CCC3)c(=O)n2CC(=O)NCc2ccc(C(=N)N)cc2)c1` [Example 117] had an IC50 of 22 nM.

Compound `N=C(N)c1ccc(CNC(=O)Cn2c(-c3cc(N)cc(C(=O)O)c3)cnc(NC3CCC3)c2=O)cc1` [Example 118] had an IC50 of 60 nM.

In turn, `N=C(N)c1ccc(CNC(=O)Cn2c(-c3cc(N)cc(N)c3)cnc(NC3CCC3)c2=O)cc1` [Example 119] gave an IC50 of 19 nM.

In turn, `N=C(N)c1ccc(CNC(=O)Cn2c(-c3cc(N)nc(C(=O)O)c3)cnc(NC3CCC3)c2=O)cc1` [Example 120] registered an IC50 of 22 nM.

The compound `CC(C)Nc1ncc(-c2cc(N)cc(N)c2)n(CC(=O)NCc2ccc(C(=N)N)cc2)c1=O` [Example 121] displayed an IC50 of 17 nM.

Consider `CC(C)Nc1nc(Cl)c(-c2cc(N)cc(C(=O)O)c2)n(CC(=O)NCc2ccc(C(=N)N)cc2)c1=O` [Example 123], for which the IC50 was determined as 90 nM.

Take `CC(C)Nc1nc(Br)c(-c2cccc(N)c2)n(CC(=O)NCc2ccc(C(=N)N)cc2)c1=O` [Example 124]: half-maximal inhibition (IC50) was put at 27 nM.

In the case of `COC(=O)c1cc(N)cc(-c2c(Cl)nc(NC(C)C)c(=O)n2CC(=O)NCc2ccc(C(=N)N)cc2)c1` [Example 125], the IC50 came to 29 nM.

Turning to `COC(=O)c1cc(N)cc(-c2c(Cl)nc(NC3CCC3)c(=O)n2CC(=O)NCc2ccc(C(=N)N)cc2)c1` [Example 127], half-maximal inhibition (IC50) required 30 nM.

On to `CC(C)Nc1nc(Cl)c(-c2cc(N)cc(C(N)=O)c2)n(CC(=O)NCc2ccc(C(=N)N)cc2)c1=O` [Example 128-1], for which inhibition was half-maximal at 40 nM (IC50).

`CC(C)Nc1nc(Cl)c(-c2cc(N)cc(C(=O)N(C)Cc3ccccc3)c2)n(CC(=O)NCc2ccc(C(=N)N)cc2)c1=O` [Example 128-2] returned an IC50 of 56 nM.

`CC(C)Nc1nc(Cl)c(-c2cc(N)cc(C(=O)NC(C)c3ccccc3)c2)n(CC(=O)NCc2ccc(C(=N)N)cc2)c1=O` (stereo not drawn) [Example 128-3]: the midpoint of inhibition, the IC50, lay at 33 nM.

As for `CC(C)Nc1nc(Cl)c(-c2cc(N)cc(C(=O)NC(C)(C)c3ccccc3)c2)n(CC(=O)NCc2ccc(C(=N)N)cc2)c1=O` [Example 128-4], inhibition was half-maximal at 51 nM (IC50).

As for `CC(C)Nc1nc(Cl)c(-c2cc(N)cc(C(=O)NCc3cc(C(F)(F)F)cc(C(F)(F)F)c3)c2)n(CC(=O)NCc2ccc(C(=N)N)cc2)c1=O` [Example 128-6], the IC50 was 481 nM.

On to `CC(C)Nc1nc(Cl)c(-c2cc(N)cc(C(=O)NCc3ccc(C(C)(C)C)cc3)c2)n(CC(=O)NCc2ccc(C(=N)N)cc2)c1=O` [Example 128-7], for which 229 nM corresponded to half-maximal inhibition (IC50).

Still in this assay, the particulars now being: at 30 µM inhibitor.
For `Cc1c(Cl)nc(NCCc2ccc(Cl)cc2)c(=O)n1CC(=O)NCc1ccc(C(=N)N)cc1` [1471-2], the “% Inhibition Trpysin II (30 µM)” value is given as 0%.

Still in this assay, the particulars now being: read-out: IC50 Trpysin II.
Regarding `CC(C)Nc1nc(Cl)c(-c2cc(N)cc(C(=O)NCc3ccc(Cl)cc3Cl)c2)n(CC(=O)NCc2ccc(C(=N)N)cc2)c1=O` [Example 128-5], the IC50 worked out at 90 nM.
